# Data taken from US6936628B2, “Oral administration of epothilones” (Bristol-Myers Squibb Company, priority 2002, dated 2005).
# Key:
# HCT116/VM46 cells = experiment: In vitro cytotoxicity assay (MTS), HCT116/VM46; assay type: cell-based, human; settings: concentration for 50% growth inhibition, HCT116/VM46 versus sensitive HCT116
# [1] = tested on: A2780Tax human ovarian carcinoma; experiment: In vivo antitumor testing, A2780Tax xenograft; parameters: species or system nude mice
# [2] = tested on: Pat-21 paclitaxel resistant breast cancer model; experiment: In vivo antitumor testing, Pat-21 xenograft; parameters: species or system nude mice
# [3] = tested on: Pat-7 human ovarian carcinoma; experiment: In vivo antitumor testing, Pat-7 xenograft
smiles,measurement,setting,value
"C/C(=C\c1csc(CN)n1)[C@@H]1C[C@@H]2O[C@]2(C)CCC[C@H](C)[C@H](O)[C@@H](C)C(=O)C(C)(C)[C@@H](O)CC(=O)O1 (relative stereo) [Compound A, [1S-[1R*,3R*(E),7R*,10S*,11R*,12R*,16S*]]-3-[2-[2-(aminomethyl)-4-thiazolyl]-1-methylethenyl]-7,11-dihydroxy-8,8,10,12,16-pentamethyl-4,17-dioxabicyclo[14.1.0]heptadecane-5,9-dione]","R/S, or resistance ratio",HCT116/VM46 cells,12.8 fold
same,MTD,"[1]; mice, Q4D×3",10 mg/kg/inj
same,LCK (gross log cell kill),"[1]; nude mice, IV, QD × 3 (text Q4D×3), at MTD, ^3 marked values from separate studies",3.6
same,MTD,"[2]; Pat-21, mice, two courses of 3 doses every 4 days",9 mg/kg/inj
same,LCK (gross log cell kill),"[2]; Pat-21, nude mice, IV, QD × 3, 37, 66 (two courses), at MTD/optimal dose, ^3 marked values from separate studies",> 4.1
same,LCK (cures/total),"[3]; Pat-7, Expt. No. 18, PO, QD × 3 (text Q4D×3), 0.25M potassium phosphate pH 8.0, at MTD",2.4
same,LCK at dose levels considerably less than the MTD,"[3]; Pat-7, IV, Q4D×3",> 1 LCK
same,optimal dose,"[3]; Pat-7, nude mice, IV, Q4D×3",8 mg/kg/inj
